Consider two compounds from US5114925A, “Renin inhibitors containing the 2-[[(2R,3S)-3-amino-4-cyclohexyl-2-hydroxy-1-butyl]thio)alkanoyl moiety and the corresponding sulfoxide and sulfone derivatives” (Merck & Co., Inc., priority 1991, dated 1992).

Amino acid sequences for entries named in this document (tags omitted). Residues count along the entry.
UniProt P00797, 67-406: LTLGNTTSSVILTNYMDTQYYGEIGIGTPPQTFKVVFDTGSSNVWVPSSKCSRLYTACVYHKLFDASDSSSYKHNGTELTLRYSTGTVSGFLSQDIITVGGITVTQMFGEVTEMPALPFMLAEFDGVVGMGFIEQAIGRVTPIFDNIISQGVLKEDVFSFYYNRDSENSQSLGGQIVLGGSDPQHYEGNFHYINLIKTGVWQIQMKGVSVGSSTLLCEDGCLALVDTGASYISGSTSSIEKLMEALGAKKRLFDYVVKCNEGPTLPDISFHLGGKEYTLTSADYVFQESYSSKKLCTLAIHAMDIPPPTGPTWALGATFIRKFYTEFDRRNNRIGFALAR

This assay concerns the target T1, human renin (Homo sapiens, UniProt P00797).
T1 construct: added to human plasma (75 μl) containing EDTA; from tissue; host or cells: human plasma
Put plainly: plasma renin assay (radioimmunoassay of angiotensin-I released in human plasma). Type of assay: biochemical. Conditions: human renin and human renin substrate in human plasma, 37° C., pH 6.9, angiotensin-I by radioimmunoassay; read-out: IC50 (the molar concentration required to cause 50% inhibition), renin inhibitory activity. The method, then: It is based on the measurement, by radiommunoassay, of Angiotensin-I released from human renin substrate by human renin in human plasma. The inhibitor is dissolved in 0.01N HCl (10 μl) and added to human plasma (75 μl) containing EDTA, and angiotensin-I antibody ([…]) in 3M-Tris.HCl buffer (pH 6.9).
Free and bound ligand are separated by the addition of dextran-coated charcoal, and the amount of bound radio-ligand determined in a gamma counter.

SMILES strings stand for the structures.

On to `CCOC(=O)[C@@H](CC(C)C)SC[C@H](O)[C@H](CC1CCCCC1)NC(=O)[C@H](Cc1c[nH]cn1)NC(=O)[C@H](Cc1ccccc1)NC(=O)OC(C)(C)C` [ethyl (2 -- R)-2-[X-thio]-4-methylpentanoate], for which the IC50 was 0.288 µM. As for `CCOC(=O)[C@H](CC(C)C)SC[C@H](O)[C@H](CC1CCCCC1)NC(=O)[C@H](Cc1cnc[nH]1)NC(=O)[C@H](Cc1ccccc1)NC(=O)OC(C)(C)C` [Ethyl (2S)-2-[[(2R,3S)-3-(Boc-L-phenylalanyl-L-histidylamino)-4-cyclohexyl-2-hydroxy-1-butyl]-thio]-4-methylpentanoate], the IC50 stood at 0.305 µM.
